Molecules are shown by their SMILES. The entries are a selection whose mix differs from that of the whole data set. Activity calls are given as the source filed them.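 How the source made its calls: active means plate-corrected calcium response at least 3 library SD above typical, normal starting fluorescence, not activating the receptor alone; inactive means the rest.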

Chains of the proteins cited; added tags and fusions are not shown. Lines headed by an entry give the natural chain unless they say otherwise; changes in a name come on top.
UniProt Q96LB2: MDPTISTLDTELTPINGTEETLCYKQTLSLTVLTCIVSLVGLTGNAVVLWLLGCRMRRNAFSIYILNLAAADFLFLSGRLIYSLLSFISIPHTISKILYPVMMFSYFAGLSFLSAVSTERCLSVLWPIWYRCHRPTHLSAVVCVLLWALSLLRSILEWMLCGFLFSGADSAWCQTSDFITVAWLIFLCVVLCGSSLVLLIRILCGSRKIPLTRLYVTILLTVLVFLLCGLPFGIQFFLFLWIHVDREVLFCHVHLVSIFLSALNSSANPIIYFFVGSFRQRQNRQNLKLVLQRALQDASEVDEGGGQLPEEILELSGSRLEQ

This assay addresses Mas-related G-protein coupled receptor member X1 (Homo sapiens) (UniProt Q96LB2). Kind of assay: positive allosteric modulators of MrgX1, primary screen, HEK293 cells, Fluo-4 calcium flux (AID 588675).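 Further: compound read alongside a low EC10 to EC30 dose of BAM8-22 agonist; peak minus trough fluorescence over baseline measured at the second addition.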 Particulars: MrgX1-HEK293, Fluo-4 calcium flux, FDSS; at 10 µM; hits give high values. On the technique in general: Calcium flux is commonly read through the fluorescence of an indicator in the cells.
With `CCc1nc2c(n1)c1c(non1O)c1c2no[n+]1[O-]`, the B-score is active: 8.69.

For `CN(C)C(=O)OCCc1n(C)cc[n+]1C`, the B-score was active: 6.62.
